# PubChem BioAssay AID493084 (National Center for Advancing Translational Sciences (NCATS), 2011)
# By UniProt entry, the sequences of proteins in these tests, tags left out. Where a name states a change or a piece, a line headed by the entry shows the natural chain unless it says otherwise.
# UniProt P34981: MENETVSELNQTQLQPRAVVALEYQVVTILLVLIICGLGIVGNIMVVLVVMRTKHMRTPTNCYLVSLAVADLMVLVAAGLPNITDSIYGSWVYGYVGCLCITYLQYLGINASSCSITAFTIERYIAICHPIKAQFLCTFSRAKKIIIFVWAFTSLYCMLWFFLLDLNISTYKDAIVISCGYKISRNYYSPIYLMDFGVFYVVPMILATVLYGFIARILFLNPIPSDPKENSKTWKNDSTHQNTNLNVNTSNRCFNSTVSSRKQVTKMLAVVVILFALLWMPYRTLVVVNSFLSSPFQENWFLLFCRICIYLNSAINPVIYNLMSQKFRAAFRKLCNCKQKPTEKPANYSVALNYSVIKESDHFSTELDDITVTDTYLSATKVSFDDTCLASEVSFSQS
# “And” between values parts separate entries of the source, which are not always exact repeats. Equal values may be shown once. This is a selection; strong and weak results do not stand in their true shares. The source made the active and inactive calls. No stated cut-off is given here; in the data, active means activation above about 30%; inactive means the rest.
# Molecular target: Thyrotropin-releasing hormone receptor (Homo sapiens) (UniProt P34981)
# Assay: qHTS for Small Molecule Agonists and Allosteric Enhancers of Human TRH Receptor: Primary Screen for Agonists. Further: 0% is about no effect.
# Conditions: TRHR cells, calcium flux fluo-8, FDSS agonist mode; at 2 µM; stronger effect = higher value
# In short: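 Fluo-8-loaded TRHR cells; 10 s baseline, compound added, kinetic Ca2+ fluorescence read 1/s, agonist mode.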
row,Compound,activation
1,N#CCCN(C(=O)COC(=O)C(O)(c1ccccc1)c1ccccc1)c1ccc(F)cc1,inactive: 0.083%
2,O=[N+]([O-])c1ccc2c(c1)nnn2O,inactive: 0.067%
3,NC(=O)Nc1ccc([As](=O)(O)O)cc1,inactive: 0.112%
4,Nc1ccccc1[As](=O)(O)c1ccccc1,inactive: 0.579%
5,O=C(O)COc1ccc([As](=O)(O)O)cc1[N+](=O)[O-],inactive: 0.507%
6,O=P(Nc1nccs1)(c1ccccc1)c1nc2ccccc2s1 (stereo unspecified),inactive: 0.218%
7,O=P(Nc1nccs1)(Oc1ccccc1)Oc1ccccc1,inactive: -0.368%
8,CCOP1(=S)c2c(C)nn(CCC#N)c2N=C(c2ccccc2F)N1C (stereo unspecified),inactive: 0.244%
9,CS(=O)(=O)c1cc([N+](=O)[O-])c2no[n+]([O-])c2c1,inactive: 7.49%
10,CN(C)C(=O)Oc1noc2ccccc12,inactive: 0.357%
11,O=c1c2cc([N+](=O)[O-])ccc2[nH]c2c([N+](=O)[O-])cc([N+](=O)[O-])cc12,inactive: 11.2%
12,Cc1ccccc1OP(=O)(Nc1ccccn1)Oc1ccccc1C,inactive: 0.473%
13,CCC(=O)N1C2C3N(C(=O)CC)C1C1N(C(=O)CC)C(C(N1C(=O)CC)N3C(=O)CC)N2C(=O)CC,inactive: 0.113%
14,O=C(OC1CN2CCC1CC2)c1ccccc1 (stereo unspecified),inactive: -0.293%
15,CC(=O)NC(SC(=S)N(CC(C)C)CC(C)C)C(Cl)(Cl)Cl (stereo unspecified),inactive: 1.45%
16,Cc1ccc(OP(=O)(Nc2ccccn2)Oc2ccc(C)cc2)cc1,inactive: -0.645%
17,COC(=O)c1cc2c(s1)N=C(c1ccccc1)N(C)P2(=O)N1CCOCC1 (stereo unspecified),inactive: 0.0789%
18,Cc1ccc(NP(=O)(Oc2cccc(C)c2)Oc2cccc(C)c2)nc1,inactive: 1.18%
19,CCOC(=O)NC(Sc1ccccc1)C(Cl)(Cl)Cl (stereo unspecified),inactive: -0.19%
20,c1ccc(-c2nn[nH]n2)c(-c2nn[nH]n2)c1,inactive: 0.26%
21,CCNC(=S)/N=C(\N)N[N+](=O)[O-],inactive: 0.127%

row,Compound,activation
1,O=C(NC1CCS(=O)(=O)C1)NP(=S)(Oc1ccccc1)Oc1ccccc1 (stereo unspecified),inactive: 0.679%
2,CC(=O)Nc1ccc(Oc2c([N+](=O)[O-])cc([N+](=O)[O-])cc2[N+](=O)[O-])cc1,inactive: -0.173%
3,CC(=O)Nc1ccc([As](=O)(O)O)c(O)c1,inactive: 0.429%
4,C[C@@H]1C=CCP(=O)(Oc2ccccc2)O1 (stereo partly specified),inactive: 0.325%
5,C[C@H]1OP(=O)(Oc2ccccc2)C[C@@H]2O[C@@H]21 (stereo partly specified),inactive: -0.258%
6,Cc1ccccc1CN(C)C(=O)COC(=O)C(O)(c1ccccc1)c1ccccc1,inactive: 0.193%
7,CC(=O)c1ccc(N2CC2c2ccncc2)cc1 (stereo unspecified),inactive: 1.39%
8,CC(C)(C)C(=O)NC(Sc1ccccc1)C(Cl)(Cl)Cl (stereo unspecified),inactive: 0.255%
9,O=P1(Nc2nc3ccc(Cl)cc3s2)COc2ccccc2O1 (stereo unspecified),inactive: 0.245%
10,c1nnnn1CCn1cnnn1,inactive: 0.583%
11,CC(C)C(=O)NC(Sc1ccccc1)C(Cl)(Cl)Cl (stereo unspecified),inactive: -0.648%
12,O=P(Nc1nccs1)(c1ccccc1)c1ccccc1,inactive: 0.161%
13,O=C(OC1CN2CCC1CC2)c1cccc(Cl)c1 (stereo unspecified),inactive: 1.5%
14,Nc1ccc([As](=O)(O)c2ccc([N+](=O)[O-])cc2)cc1,inactive: 0.503%
15,C(Cc1nn[nH]n1)Cc1nn[nH]n1,inactive: 0.286%
16,O=[As](O)(c1ccccc1)c1ccc(O)cc1,inactive: 0.415%
17,O=[N+]([O-])c1ccc(O)c(/C=N/Nc2ccc([N+](=O)[O-])cc2[N+](=O)[O-])c1,inactive: 4.56%
18,CC(=O)NC(SC(=S)N(C)C)C(Cl)(Cl)Cl (stereo unspecified),inactive: 0.161%
19,O=[N+]([O-])c1ncn(CCn2cnc([N+](=O)[O-])n2)n1,inactive: 0.143%
20,C[C@H]1OP(=O)(Oc2ccccc2)[C@H](O)[C@H](O)[C@H]1N=[N+]=[N-] (stereo partly specified),inactive: -0.157%
21,O=P(Nc1nc2ccccc2s1)(c1ccccc1)c1ccccc1,inactive: -1.17%

row,Compound,activation
1,O=P(Nc1ccccn1)(c1ccc(Br)cc1)c1ccc(Br)cc1,inactive: 0.326%
2,CN(C)C1(CNC(=O)c2ccc(Cl)c(S(N)(=O)=O)c2)CCCCC1,inactive: -1.45%
3,O=C(O)CNc1ccc([As](=O)(O)O)cc1,inactive: -0.553%
4,O=[N+]([O-])c1cccc(NC2=NCC(CBr)S2)c1 (stereo unspecified),inactive: -1%
5,O=[N+]([O-])c1ncn(CCn2ncnc2[N+](=O)[O-])n1,inactive: 0.958%
6,CC(C)(C)C(=O)NC(Sc1ccncn1)C(Cl)(Cl)Cl (stereo unspecified),inactive: 0.283%
7,O=C(Nc1cc([As](=O)(O)O)ccc1O)c1ccccc1,inactive: 0.341%
8,CC1CCN(C(=O)Oc2c(Cl)cc(Cl)c3cccnc23)CC1,inactive: 9.06%
9,CN(C)C(=O)OCCc1n(C)cc[n+]1C,inactive: -0.593%
10,CC(C)=N/N=C(\N)N[N+](=O)[O-],inactive: -0.678%
11,CCN(/C(=N/P(=O)(N1CCOCC1)N1CCOCC1)N1CCOCC1)c1ccc(OC)cc1,inactive: 0.278%
12,C[N+]1=C2C=CC=CC=C2SC12C([N+](=O)[O-])=CC([N+](=O)[O-])=C[C-]2[N+](=O)[O-] (stereo unspecified),inactive: 0.935%
13,Nc1ccc([As](=O)(O)c2ccc(N)cc2)cc1,inactive: 0.842%
14,CCc1nc2c(n1)c1c(non1O)c1c2no[n+]1[O-],inactive: 0.227%
15,O=[N+]([O-])c1cc([N+](=O)[O-])c(CCNc2ccccc2)c([N+](=O)[O-])c1,inactive: 1.3%
16,Cc1ccc(NP(=O)(Oc2ccccc2)Oc2ccccc2)nc1,inactive: 0.466%
17,O=[N+]([O-])c1cccc2n[nH]nc12,inactive: 0.22%
18,CC(=O)N1C2C3N(C(C)=O)C1C1N(C(C)=O)C(C(N1C(C)=O)N3C(C)=O)N2C(C)=O,inactive: -0.339%
19,COc1ccc(C2=NCC(CBr)S2)cc1 (stereo unspecified),inactive: -0.843%
20,Cc1c2non([O-])c-2c(C)[n+](=O)[n+]1[O-],inactive: -0.644%
21,O=C(NC(Sc1ccncn1)C(Cl)(Cl)Cl)c1ccccc1 (stereo unspecified),inactive: -0.28%

row,Compound,activation
1,Oc1ccccc1CNc1ccccn1,inactive: -1.1%
2,Nc1cc(N)c2nonc2c1[N+](=O)[O-],inactive: 0.183%
3,Clc1ccc(Cl)c(NC2=NCC(CBr)S2)c1 (stereo unspecified),inactive: -0.433%
4,CN1CCCC(OC(=O)C(c2ccccc2)c2ccccc2)C1 (stereo unspecified),inactive: 0.912%
5,Cc1ccc(OP(=O)(Nc2nccs2)Oc2ccc(C)cc2)cc1,inactive: -0.125%
6,COc1ccccc1OP(=O)(Nc1ccc(C)cn1)Oc1ccccc1OC,inactive: 0.294%
7,Cc1ccc(N/C(=N/P(=O)(N2CCOCC2)N2CCOCC2)N2CCOCC2)cc1,inactive: -0.986%
8,CN(C(=O)Cc1ccc(Cl)c(Cl)c1)[C@H]1CCCC[C@H]1N1CCCC1,inactive: 0.829%
9,NC(=O)c1cc([N+](=O)[O-])cc([N+](=O)[O-])c1N,inactive: -1.1%
10,Nc1cccc2ccc([As](=O)(O)O)cc12,inactive: -0.804%
11,CCN(N=Nc1nonc1N)c1nonc1N,inactive: 0.132%
12,O=[N+]([O-])c1cc([N+](=O)[O-])c(CCN2CCOCC2)c([N+](=O)[O-])c1,inactive: 0.307%
13,Cc1ccc(NP(=O)(Oc2ccccc2F)Oc2ccccc2F)nc1,inactive: -0.378%
14,CCOP(=O)(Nc1ccccc1)OCC,inactive: 0.249% and inactive: -0.632%
15,Cc1cc(SC(NC(=O)c2ccc(F)cc2)C(Cl)(Cl)Cl)ncn1 (stereo unspecified),inactive: -0.946%
16,O=P(Nc1nc2ccc(Cl)cc2s1)(c1ccccc1)c1ccccc1,inactive: 0.46%
17,O=C(O)c1ccccc1[As](=O)(O)O,inactive: -0.407%
18,CC(=O)Nc1ccc([As](=O)(O)O)cc1,inactive: 0.582%
